Earlier results as cited in patent US10227335B2.
This is a selection: effects in other tests are not listed, and their absence says nothing.

Structure (SMILES): CCC(=O)N(c1ccccc1)C1(COC)CCN(CCc2cccs2)CC1
- terminal half-life (compared with alfentanil and fentanyl): intermediate between alfentanil and fentanyl
- volume of distribution (compared with fentanyl): smaller
